From patent US9026203B2, “Photosensitizing compositions” (PCI Biotech AS, priority 2009, dated 2015) come the findings set out here.

The nature of this series: Solubility of salts in water (water added in 0.2 ml portions). In kind it is physicochemical.

Turning to “Meso-Tetraphenyl Chlorin Disulphonate bis(monoethanolamine) [Example 7]”, the “Minimum solubility in water” value was 34.9 mg/mL.
